Assays:
HDAC-4 = HDAC-4 (Homo sapiens, UniProt P56524); test: Binding to metal dependent histone deacetylase enzymes (epigenetic assay services)
HDAC-10 = molecular target: T1, HDAC-10 (Homo sapiens, UniProt Q969S8); test: as above
T1 sequence (Q969S8 1-669): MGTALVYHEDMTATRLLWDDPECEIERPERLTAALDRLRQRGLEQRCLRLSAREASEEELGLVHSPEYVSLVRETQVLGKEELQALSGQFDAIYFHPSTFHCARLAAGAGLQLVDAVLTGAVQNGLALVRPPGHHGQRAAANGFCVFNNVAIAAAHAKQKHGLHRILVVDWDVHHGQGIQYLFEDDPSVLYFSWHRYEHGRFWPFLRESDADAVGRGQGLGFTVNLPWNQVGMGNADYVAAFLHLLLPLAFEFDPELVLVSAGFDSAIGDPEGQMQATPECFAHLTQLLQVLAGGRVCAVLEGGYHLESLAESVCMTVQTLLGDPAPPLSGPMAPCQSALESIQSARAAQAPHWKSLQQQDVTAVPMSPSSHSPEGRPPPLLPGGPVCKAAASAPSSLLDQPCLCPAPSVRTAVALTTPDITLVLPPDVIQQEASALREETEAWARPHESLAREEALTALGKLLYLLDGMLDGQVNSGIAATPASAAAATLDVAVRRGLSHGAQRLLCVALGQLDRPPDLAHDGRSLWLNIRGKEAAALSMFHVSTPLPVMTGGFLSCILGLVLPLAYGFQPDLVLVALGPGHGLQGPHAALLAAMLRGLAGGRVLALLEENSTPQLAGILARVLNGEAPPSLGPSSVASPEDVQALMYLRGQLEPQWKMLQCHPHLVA

By UniProt entry, the sequences of proteins in these tests, tags left out.
UniProt P56524, whole entry, species assumed: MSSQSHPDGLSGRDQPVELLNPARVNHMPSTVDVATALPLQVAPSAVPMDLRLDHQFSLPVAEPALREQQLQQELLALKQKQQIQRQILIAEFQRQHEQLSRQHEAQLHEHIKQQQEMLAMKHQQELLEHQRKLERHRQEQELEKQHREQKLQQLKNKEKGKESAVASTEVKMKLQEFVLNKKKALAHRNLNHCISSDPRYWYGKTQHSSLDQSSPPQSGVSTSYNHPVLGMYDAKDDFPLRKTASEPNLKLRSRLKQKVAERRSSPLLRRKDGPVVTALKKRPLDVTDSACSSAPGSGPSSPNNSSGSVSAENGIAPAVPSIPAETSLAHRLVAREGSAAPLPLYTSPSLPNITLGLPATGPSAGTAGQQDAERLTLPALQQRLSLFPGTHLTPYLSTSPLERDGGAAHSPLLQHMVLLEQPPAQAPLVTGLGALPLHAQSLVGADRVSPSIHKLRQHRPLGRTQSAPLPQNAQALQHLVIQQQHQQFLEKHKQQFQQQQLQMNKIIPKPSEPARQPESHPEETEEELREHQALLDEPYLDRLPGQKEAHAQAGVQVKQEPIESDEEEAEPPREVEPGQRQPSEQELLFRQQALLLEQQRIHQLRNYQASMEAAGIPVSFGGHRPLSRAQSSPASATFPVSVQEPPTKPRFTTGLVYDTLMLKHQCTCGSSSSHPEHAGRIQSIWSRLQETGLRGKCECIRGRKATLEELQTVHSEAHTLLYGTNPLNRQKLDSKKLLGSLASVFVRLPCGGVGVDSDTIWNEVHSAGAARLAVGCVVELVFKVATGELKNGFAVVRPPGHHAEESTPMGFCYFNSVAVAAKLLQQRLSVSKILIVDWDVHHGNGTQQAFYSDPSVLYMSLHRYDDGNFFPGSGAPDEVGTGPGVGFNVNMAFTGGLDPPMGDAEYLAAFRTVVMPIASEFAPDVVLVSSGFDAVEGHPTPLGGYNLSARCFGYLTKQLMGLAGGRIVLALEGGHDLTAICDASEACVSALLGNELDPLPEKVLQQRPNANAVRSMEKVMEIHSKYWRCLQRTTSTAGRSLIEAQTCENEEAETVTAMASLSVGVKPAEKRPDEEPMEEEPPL
UniProt Q13547, whole entry, species assumed: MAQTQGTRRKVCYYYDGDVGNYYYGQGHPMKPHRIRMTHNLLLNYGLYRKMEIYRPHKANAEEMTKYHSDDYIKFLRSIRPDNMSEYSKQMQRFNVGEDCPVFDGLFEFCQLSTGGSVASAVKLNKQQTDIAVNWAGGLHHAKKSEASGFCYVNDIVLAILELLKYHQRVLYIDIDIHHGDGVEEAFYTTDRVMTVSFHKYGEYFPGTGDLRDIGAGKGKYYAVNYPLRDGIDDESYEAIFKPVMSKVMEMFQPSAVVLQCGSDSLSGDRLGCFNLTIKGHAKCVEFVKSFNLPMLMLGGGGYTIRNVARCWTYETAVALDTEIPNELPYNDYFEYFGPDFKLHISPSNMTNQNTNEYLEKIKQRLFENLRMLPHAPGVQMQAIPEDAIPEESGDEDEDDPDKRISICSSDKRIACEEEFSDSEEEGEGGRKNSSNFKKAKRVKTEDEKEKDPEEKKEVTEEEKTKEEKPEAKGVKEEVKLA
UniProt Q92769, whole entry, species assumed: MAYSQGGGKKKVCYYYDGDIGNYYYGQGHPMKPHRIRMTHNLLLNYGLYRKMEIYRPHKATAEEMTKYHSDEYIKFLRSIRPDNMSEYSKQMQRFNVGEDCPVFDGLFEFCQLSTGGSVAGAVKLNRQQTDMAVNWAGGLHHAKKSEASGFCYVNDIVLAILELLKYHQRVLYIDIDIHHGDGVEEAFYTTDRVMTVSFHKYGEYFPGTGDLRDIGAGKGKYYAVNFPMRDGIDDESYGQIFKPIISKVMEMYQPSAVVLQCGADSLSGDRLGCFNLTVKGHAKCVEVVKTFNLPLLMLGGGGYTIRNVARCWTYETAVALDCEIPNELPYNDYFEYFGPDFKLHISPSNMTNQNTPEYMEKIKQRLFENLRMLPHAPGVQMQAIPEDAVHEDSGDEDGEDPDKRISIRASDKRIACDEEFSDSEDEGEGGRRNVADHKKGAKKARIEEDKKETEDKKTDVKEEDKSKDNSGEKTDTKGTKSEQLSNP
UniProt Q9BY41, whole entry, species assumed: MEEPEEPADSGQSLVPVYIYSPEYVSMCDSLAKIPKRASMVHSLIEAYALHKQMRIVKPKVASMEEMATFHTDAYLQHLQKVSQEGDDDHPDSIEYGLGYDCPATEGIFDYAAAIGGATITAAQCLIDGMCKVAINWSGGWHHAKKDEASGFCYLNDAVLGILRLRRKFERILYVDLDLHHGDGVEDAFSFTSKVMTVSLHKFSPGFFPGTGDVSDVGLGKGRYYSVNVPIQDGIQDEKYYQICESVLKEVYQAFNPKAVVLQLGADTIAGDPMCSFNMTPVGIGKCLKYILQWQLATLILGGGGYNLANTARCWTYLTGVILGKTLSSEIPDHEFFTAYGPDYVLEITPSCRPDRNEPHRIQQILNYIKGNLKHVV

HDAC-11 = molecular target: T2, HDAC-11 (Homo sapiens, UniProt Q96DB2); test: as above
T2 sequence (Q96DB2 1-347): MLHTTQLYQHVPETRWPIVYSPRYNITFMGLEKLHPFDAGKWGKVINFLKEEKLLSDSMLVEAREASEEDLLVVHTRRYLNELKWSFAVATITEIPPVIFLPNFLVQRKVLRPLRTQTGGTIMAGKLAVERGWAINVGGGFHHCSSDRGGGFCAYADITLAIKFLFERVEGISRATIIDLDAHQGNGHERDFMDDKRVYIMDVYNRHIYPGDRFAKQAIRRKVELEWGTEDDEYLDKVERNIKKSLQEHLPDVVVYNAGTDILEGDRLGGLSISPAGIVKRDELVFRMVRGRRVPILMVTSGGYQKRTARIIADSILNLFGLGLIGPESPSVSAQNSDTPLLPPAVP

HDAC-1 = HDAC-1 (Homo sapiens, UniProt Q13547)
HDAC-2 = HDAC-2 (Homo sapiens, UniProt Q92769)
HDAC8 = HDAC8 (Homo sapiens, UniProt Q9BY41)

HILLSLOPE (HDAC-4): −0.24
HILLSLOPE (HDAC-10): −0.84
HILLSLOPE (HDAC-11): −0.59
HILLSLOPE (HDAC-1): −0.79
HILLSLOPE (HDAC-2): −0.93
HILLSLOPE (HDAC8): −0.64
Compound: CC(/C=C/C(=O)NO)=C\[C@@H](C)C(=O)c1ccc(N(C)C)cc1 [Trichostatin A]

Reference: patent US9532970B2, “Compositions for anti-inflammatory, antioxidant effects and improved respiratory function by specific histone deacetylase inhibition” (priority 2014, dated 2017)
